Bounds are passed on as bounds.

Sequences of proteins named here, by UniProt entry; tags and fusion partners are left off. Residues count along the entry.
UniProt P15692, 214-315: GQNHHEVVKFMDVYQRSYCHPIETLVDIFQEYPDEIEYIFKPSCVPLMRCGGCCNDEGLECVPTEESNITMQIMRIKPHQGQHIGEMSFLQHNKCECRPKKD
UniProt P02768, 25-609: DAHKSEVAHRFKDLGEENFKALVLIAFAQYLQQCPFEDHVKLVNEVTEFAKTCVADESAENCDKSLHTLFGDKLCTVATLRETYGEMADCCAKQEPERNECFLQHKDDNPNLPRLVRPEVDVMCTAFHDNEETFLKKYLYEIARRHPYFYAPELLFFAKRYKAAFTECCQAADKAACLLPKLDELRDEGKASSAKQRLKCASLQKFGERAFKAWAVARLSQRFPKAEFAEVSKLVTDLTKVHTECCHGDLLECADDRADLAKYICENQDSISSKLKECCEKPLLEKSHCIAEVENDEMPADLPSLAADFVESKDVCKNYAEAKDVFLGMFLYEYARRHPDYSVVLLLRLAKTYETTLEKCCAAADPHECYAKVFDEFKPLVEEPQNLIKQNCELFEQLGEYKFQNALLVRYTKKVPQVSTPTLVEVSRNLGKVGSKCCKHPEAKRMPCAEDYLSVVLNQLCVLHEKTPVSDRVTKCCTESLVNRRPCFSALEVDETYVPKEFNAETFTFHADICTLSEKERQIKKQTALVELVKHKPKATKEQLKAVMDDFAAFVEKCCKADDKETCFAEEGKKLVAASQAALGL

One series addresses T1, human VEGF-A (Homo sapiens, UniProt P15692).
T1 construct: biotin-VEGF-A (8–109, Genentech)
The series can be described thus: SPR. To be noted: Table S16; SPR against VEGF-A; averaged from at least three independent runs; estimated KD values due to possible non-specific binding.

A further series addresses T2, human serum albumin (Homo sapiens, UniProt P02768).
T2 construct: purchased Rockland Immunochemicals, Inc. 009–0633
The series is described as follows: SPR. To be noted: Table S12 and text; SPR Biacore S200, PBS-T pH 7.4, biotinylated human serum albumin on SA chip; at least three independent runs; N.A. = no detectable binding. The procedure: SPR measurements were carried out on a Biacore S200 instrument (GE Healthcare) with PBS-T (PBS with 0.05% Tween 20, pH 7.4) as the assay buffer as described previously. For kinetic measurements, biotinylated protein was captured on three separate sensor channels of a Series S SA Sensor chip (GE Healthcare). The chip was then blocked with 0.1 mg/mL free biotin. A concentration series of the DCP were injected to the chip. Data were double-referenced by subtracting the signal from a control sensor channel (coated with biotin only) and the signal from a buffer injection. Binding data were fitted using the manufacturer’s software (1:1 or two state binding model for single-cycle kinetics or steady-state model for multi-cycle kinetics).
(Surface plasmon resonance follows binding to a sensor surface in real time, without labels.)

Series [1] concerns the target T3, human IgG Fc (Homo sapiens, UniProt P01857).
T3 construct: Biotin-SP-ChromPure Human IgG, Fc fragment; purchased Jackson Immunoresearch Labs Inc. 009060008
The series is described as follows: Phage competition ELISA (synthetic DCP vs its own phage). It counts as binding. To be noted: Table S12; synthetic DCP competing with its own phage for biotinylated human IgG Fc on neutravidin plate; absorbance 450 nm; averaged from at least three independent runs. For orientation: An ELISA detects its analyte on a solid surface through an enzyme-linked reagent.

Series [2] deals with T3, human IgG Fc. The series is described as follows: SPR. To be noted: Table S12; SPR Biacore S200, PBS-T pH 7.4, biotinylated protein on SA chip; averaged from at least three independent runs; N.A. = no detectable binding; * estimated value due to possible non-specific binding.
The conditions of series [3]: 100% human serum, 0.2 mM DCP, 37°C, LC-MS, UV 220 nm peak area normalized to 0 h, three independent experiments.

For `CC[C@H](C)[C@@H]1NC(=O)[C@H](Cc2c[nH]cn2)NC(=O)[C@H](Cc2c[nH]cn2)NC(=O)[C@@H]2CCCN2C(=O)[C@H](C(C)C)NC(=O)[C@H](Cc2c[nH]c3ccccc23)NC(=O)[C@@H]2CCCN2C(=O)[C@H]([C@@H](C)O)NC(=O)[C@H]([C@@H](C)O)NC(=O)[C@@H](NC(=O)CN)CSSC[C@@H]2NC(=O)CNC(=O)[C@H](C)NC(=O)[C@H](CC(C)C)NC(=O)[C@@H]3CSSC[C@@H](C(=O)NCC(=O)O)NC(=O)[C@H](Cc4ccccc4)NC(=O)CNC(=O)[C@H](CC(N)=O)NC(=O)[C@@H]4CCCN4C(=O)CNC(=O)[C@H](CSSC[C@H](NC(=O)[C@H](CCSC)NC1=O)C(=O)N[C@@H](CCCCN)C(=O)N[C@@H](CCC(N)=O)C(=O)N[C@@H](CC(=O)O)C(=O)N[C@@H](CO)C(=O)N[C@@H](CC(=O)O)C(=O)N3)NC(=O)[C@H](C(C)C)NC2=O` [V-EET-1], the Kd on human VEGF-A was greater than 20000 nM.

As to `CSCC[C@@H]1NC(=O)[C@@H]2CSSC[C@H](NC(=O)[C@H](CO)NC(=O)[C@@H](N)C(C)C)C(=O)N[C@@H]([C@@H](C)O)C(=O)N[C@@H]([C@@H](C)O)C(=O)N[C@@H](CO)C(=O)N[C@@H](CCCCN)C(=O)N[C@@H](CCC(=O)O)C(=O)N[C@H]3CSSC[C@H](NC(=O)[C@H]([C@@H](C)O)NC(=O)[C@H](CC(N)=O)NC(=O)[C@H](CCCNC(=N)N)NC1=O)C(=O)N[C@@H](Cc1ccc(O)cc1)C(=O)N[C@H](C(=O)N[C@H](C(=O)N1CCC[C@H]1C(=O)O)[C@@H](C)O)CSSC[C@H](NC(=O)[C@H](C(C)C)NC(=O)[C@H](CO)NC(=O)[C@H](Cc1c[nH]c4ccccc14)NC3=O)C(=O)N[C@@H](CCC(N)=O)C(=O)N[C@@H](CCCNC(=N)N)C(=O)N[C@@H](CC(C)C)C(=O)N[C@@H](Cc1c[nH]cn1)C(=O)N[C@@H](CC(N)=O)C(=O)N[C@@H]([C@@H](C)O)C(=O)N[C@@H](CO)C(=O)N[C@@H](Cc1ccc(O)cc1)C(=O)NCC(=O)N[C@@H]([C@@H](C)O)C(=O)NCC(=O)N2` [Hs-Chr-3], binding at human serum albumin was characterised by a dissociation constant (Kd) of 440 nM.

As for `CC[C@H](C)[C@@H]1NC(=O)[C@H](CCC(N)=O)NC(=O)[C@H](Cc2c[nH]cn2)NC(=O)[C@@H]2CCCN2C(=O)[C@H](Cc2ccccc2)NC(=O)[C@H](Cc2c[nH]c3ccccc23)NC(=O)[C@@H]2CCCN2C(=O)[C@H]([C@@H](C)O)NC(=O)[C@H](CCC(N)=O)NC(=O)[C@@H](NC(=O)CN)CSSC[C@@H]2NC(=O)CNC(=O)[C@H](C)NC(=O)[C@H](CC(C)C)NC(=O)[C@@H]3CSSC[C@@H](C(=O)NCC(=O)O)NC(=O)[C@H](Cc4ccccc4)NC(=O)CNC(=O)[C@H](CC(N)=O)NC(=O)[C@@H]4CCCN4C(=O)CNC(=O)[C@H](CSSC[C@H](NC(=O)[C@H](CC(C)C)NC1=O)C(=O)N[C@@H](CCCCN)C(=O)N[C@@H](CCC(N)=O)C(=O)N[C@@H](CC(=O)O)C(=O)N[C@@H](CO)C(=O)N[C@@H](CC(=O)O)C(=O)N3)NC(=O)[C@H](C(C)C)NC2=O` [V-EET-2], on human VEGF-A, the Kd was greater than 30000 nM.

`CC(C)C[C@@H]1NC(=O)[C@@H]2CSSC[C@@H](C(=O)NCC(=O)O)NC(=O)[C@H](Cc3ccccc3)NC(=O)CNC(=O)[C@H](CC(N)=O)NC(=O)[C@@H]3CCCN3C(=O)CNC(=O)[C@@H]3CSSC[C@H](NC(=O)[C@H](Cc4ccccc4)NC(=O)[C@H](Cc4c[nH]c5ccccc45)NC(=O)[C@H](C(C)C)NC(=O)[C@H](CCCNC(=N)N)NC(=O)[C@H](Cc4ccc(O)cc4)NC(=O)[C@H](Cc4c[nH]c5ccccc45)NC(=O)[C@H](Cc4ccc(O)cc4)NC(=O)[C@H](Cc4c[nH]cn4)NC(=O)[C@H](C)NC(=O)[C@H](CCC(N)=O)NC(=O)[C@@H](NC(=O)CN)CSSC[C@H](NC(=O)CNC(=O)[C@H](C)NC1=O)C(=O)N[C@@H](C(C)C)C(=O)N3)C(=O)N[C@@H](CCCCN)C(=O)N[C@@H](CCC(N)=O)C(=O)N[C@@H](CC(=O)O)C(=O)N[C@@H](CO)C(=O)N[C@@H](CC(=O)O)C(=O)N2` [Ig-EET-1] came in with an IC50 on human IgG Fc [1] of 447 nM. At human IgG Fc [2], the Kd was 228 nM. Further, the “loss of peptides after 24 h” value in series [3] is reported as 40–50%.

Broadly, the Kd is the free concentration of one partner at which half of the binding sites on the other are occupied at equilibrium, for simple one-to-one binding. The IC50 is the concentration needed to halve the response being measured. The low end stands for inhibition by little substance, the high end for a need for much substance.

Values taken from PMC10977726 (PLOS ONE, 2024).
